The source of these data is PubChem BioAssay AID1415 (NMMLSC, 2008).

Chains of the proteins cited; added tags and fusions are not shown.
UniProt P09471, whole entry, looked up: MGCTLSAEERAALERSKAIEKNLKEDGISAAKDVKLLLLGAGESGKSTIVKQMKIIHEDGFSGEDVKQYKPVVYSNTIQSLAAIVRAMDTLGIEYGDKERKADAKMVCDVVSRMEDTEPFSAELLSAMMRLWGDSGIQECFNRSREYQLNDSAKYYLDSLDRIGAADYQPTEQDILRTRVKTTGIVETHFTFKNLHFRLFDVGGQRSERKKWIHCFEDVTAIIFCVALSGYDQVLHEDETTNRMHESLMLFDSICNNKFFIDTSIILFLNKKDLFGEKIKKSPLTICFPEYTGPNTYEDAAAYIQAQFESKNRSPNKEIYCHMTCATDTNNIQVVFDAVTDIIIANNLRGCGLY

Molecules are shown by their SMILES. Values joined by “and” are separate entries in the source; they are usually repeats but may differ in a detail not shown here. Equal entries are not always repeated. This is a selection; strong and weak results do not stand in their true shares. Active and inactive are the calls of the source. Cut-off read from the data, not from the text of the source: active = binding response below about 49% or above about 150%; inactive = in between.

The target in the experiment is Guanine nucleotide-binding protein G(o) subunit alpha (Homo sapiens) (UniProt P09471). The experiment in a line: modulators of RGS4 binding to Galphao, primary screen, biochemical, multiplexed bead flow cytometry (AID 1415).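 Note: fluorescent Galphao activated with aluminum fluoride binding bead-coupled RGS4.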 Conditions: at 10 µM, actives lie on both sides.
On to `CC(C)CC(=O)NC(Sc1ccc(Cl)cc1)C(Cl)(Cl)Cl` (configuration not stated), for which the binding response (% of control) is inactive: 97.9%. In the case of `Cc1ccc(N/C(=N/P(=O)(N2CCOCC2)N2CCOCC2)N2CCOCC2)cc1` it was inactive: 103%; in that of `NC(=O)c1cc([N+](=O)[O-])cc([N+](=O)[O-])c1N`, inactive: 102%; in that of `CN1CCCC(OC(=O)C(c2ccccc2)c2ccccc2)C1` (configuration not stated), inactive: 104%.

On to `Clc1ccc(Cl)c(NC2=NCC(CBr)S2)c1` (configuration not stated), for which the binding response (% of control) is inactive: 107%. The same measure for `COc1ccccc1OP(=O)(Nc1ccc(C)cn1)Oc1ccccc1OC`: inactive: 102%; for `Cc1ccc(OP(=O)(Nc2nccs2)Oc2ccc(C)cc2)cc1`: inactive: 109%. In the case of `Nc1cccc2ccc([As](=O)(O)O)cc12` it was inactive: 94.9%; in that of `CCN(N=Nc1nonc1N)c1nonc1N`, inactive: 97%. In the case of `O=P(Nc1nc2ccc(Cl)cc2s1)(c1ccccc1)c1ccccc1` it was inactive: 96.4%; in that of `CC(=O)Nc1ccc([As](=O)(O)O)cc1`, inactive: 89.6%; in that of `O=C(O)c1ccccc1[As](=O)(O)O`, inactive: 96.3%. Take `Cc1cc(SC(NC(=O)c2ccc(F)cc2)C(Cl)(Cl)Cl)ncn1` (configuration not stated): the binding response (% of control) was inactive: 99.1%. In the case of `CCOP(=O)(Nc1ccccc1)OCC` it was inactive: 101% and inactive: 104%; in that of `Cc1ccc(NP(=O)(Oc2ccccc2F)Oc2ccccc2F)nc1`, inactive: 105%; in that of `ClCCSc1nnc(-c2cccnc2)o1`, inactive: 100%.

As for `CC(C)c1ccc(OP(=O)(Nc2ccccn2)Oc2ccccc2F)cc1` (configuration not stated), the binding response (% of control) was inactive: 77.3%. In the case of `CC(C)NC(=O)NP(=O)(Oc1ccccc1)Oc1ccccc1` it was inactive: 94.8%; in that of `CCN(CC)C(=S)SC(NC=O)C(Cl)(Cl)Cl` (configuration not stated), inactive: 103%. The same measure for `O=[N+]([O-])c1cc([N+](=O)[O-])c(-c2ccn[nH]2)s1`: inactive: 100%; for `C[As](=O)(O)c1cccc(C(=O)O)c1`: inactive: 77%. The same measure for `O=[As](O)(c1ccc(O)cc1)c1ccccc1O`: inactive: 98.1%; for `Cc1ccc(OP(=O)(Nc2ccc([N+](=O)[O-])cn2)Oc2ccc(C)cc2)cc1`: inactive: 97.7%. For the molecule `Cc1ccc2nc3c(c(C)c2c1)CC(C(Cl)Cl)S3` (configuration not stated), the binding response (% of control) was inactive: 105%. With `COc1ccc(N/C(=N/P(=O)(N2CCOCC2)N2CCOCC2)N2CCOCC2)cc1`, the binding response (% of control) was inactive: 101%.

On to `Cc1c2c(nc3ccccc13)SC(C(Cl)Cl)C2` (configuration not stated), for which the binding response (% of control) is inactive: 91.9%. The same measure for `O=C(OC1CN2CCC1CC2)C12CC3CC(CC(C3)C1)C2` (configuration not stated): inactive: 101%; for `Cc1cc(=O)[nH]c(N[N+](=O)[O-])n1`: inactive: 104%.

On to `COc1ccc2nc(NP(=O)(c3ccccc3)c3ccccc3)sc2c1`, for which the binding response (% of control) was inactive: 103%. In the case of `COc1cc(I)ccc1[As](=O)(O)O` it was inactive: 107%.

With `CCOC(=O)c1ccc(NC(=O)C(C)(CCl)SC)cc1` (configuration not stated), the binding response (% of control) is inactive: 101%. In the case of `CCC(C)N(CC(C)C)C(=S)SC(NC(C)=O)C(Cl)(Cl)Cl` (configuration not stated) it was inactive: 98.6%; in that of `COP1(=S)c2c(C)nn(CCC#N)c2N=C(c2ccc(F)cc2)N1C` (configuration not stated), inactive: 102%; in that of `O=C(COc1ccccc1)OC1CN2CCC1CC2` (configuration not stated), inactive: 93.8%. In the case of `CCOC(=O)Nc1cccc([As](=O)(O)O)c1` it was inactive: 105%; in that of `Cc1cc(SC(NC=O)C(Cl)(Cl)Cl)ncn1` (configuration not stated), inactive: 99.9%.

Consider `O=P(Nc1ccccn1)(c1cccc2ccccc12)c1cccc2ccccc12`, for which the binding response (% of control) is inactive: 101%.

With `O=[N+]([O-])c1ccc(Nc2ccc(Oc3ccc([N+](=O)[O-])cc3[N+](=O)[O-])cc2)c([N+](=O)[O-])c1`, the binding response (% of control) is inactive: 96%. In the case of `CCOC(=O)Nc1ccc([As](=O)(O)O)c(O)c1` it was inactive: 97.4%; in that of `Cc1cc(SC(NC(=O)c2ccccc2)C(Cl)(Cl)Cl)nc(C(C)C)n1` (configuration not stated), inactive: 100%.

`O=P1(Nc2ncccn2)COc2ccccc2OC1`: the binding response (% of control) was inactive: 104%.

For `Nc1cccc([As](=O)(O)c2ccccc2)c1`, the binding response (% of control) was inactive: 102%. The same measure for `O=[As](O)(c1cccs1)c1cccs1`: inactive: 97.8%; for `Cc1ccc(OCC(=O)OC2CN3CCC2CC3)cc1` (configuration not stated): inactive: 93.1%; for `O=P1(Nc2ccc(Br)cn2)COc2ccccc2OC1`: inactive: 103%. As for `Cc1nn(-c2ccccc2)c2c1P(=O)(N1CCOCC1)N(C)C(c1ccccc1)=N2` (configuration not stated), the binding response (% of control) was inactive: 102%. As for `CC1CCC(C(C)C)C(OP(=O)(Nc2ccccn2)c2ccccc2)C1` (configuration not stated), the binding response (% of control) was inactive: 100%. In the case of `CN(C)C1(CNC(=O)c2ccc(S(C)(=O)=O)cc2)CCCCC1` it was inactive: 106%; in that of `O=C(/C=C/c1ccccc1)OC1CN2CCC1CC2` (configuration not stated), inactive: 102%. For `CN(C(=O)Cc1ccc(Cl)c(Cl)c1)[C@@H]1CCCC[C@H]1N1CCCC1`, the binding response (% of control) was inactive: 100%. `CC(C)/C=N\N=C(\N)N[N+](=O)[O-]`: the binding response (% of control) was inactive: 94.1%. Take `O=[As](O)(c1ccccc1Br)c1ccccc1Br`: the binding response (% of control) is inactive: 97.8%.
